The values that follow come from patent US8574585B2, “KDR peptides and vaccines comprising the same” (Oncotherapy Science, Inc., priority 2002, dated 2013).

The assay relates to transgenic mice that express human HLA (A0201). Put plainly: IFN-γ ELISPOT of splenocytes from peptide-vaccinated A2/Kb transgenic mice. It counts as in vivo, mouse. The text has this: CTLs were induced by a vaccination method, using the 16 types of 9-mer and 10-mer peptides (SEQ ID NOs:26 to 41) predicted in Example 6 on transgenic mice that express human HLA (A0201) (Hum. Immunol., 2000 August; 61(8):764-79 Related Articles, Books, Linkout Induction of CTL response by a minimal epitope vaccine in HLA A*0201/DR1 transgenic mice: dependence on HLA class II restricted T(H) response, BenMohamed, L., Krishnan, R., Longmate, J., Auge, C., Low, L., Primus, J., and Diamond, D. J.).
Six- to eight-week old BALB/C(H-2^d) mice were obtained from CLEA Japan. A2/Kb transgenic mice (TGM) were provided by F. Jim Primus, Ph.D. at Vanderbilt-Ingram Cancer Center. T2 cells (TAP-deficient and HLA-A*0201-positive cells) were provided by Prof. H. Shiku at Mie University's Third Department of Internal Medicine.
[…] DCs were reacted with FITC-labeled anti-ClassII and CD40 antibodies, and PE-labeled anti-ClassI, CD11c, CD80, and CD86 antibodies (all from Beckton-Dickinson), and confirmed to be DCs by analysis of the surface antigens by FACS-Calibur (Beckton-Dickinson) using Cell Quest software.
Next, 100 μg of each peptide, 140 μg of HbcAg120-140 helper peptide, and 100 μL of IFA were mixed (200 μL in total). The mixture was administered subcutaneously to the right abdomen on day 0, and to the left abdomen on day 11. The spleens of the vaccinated mice were collected on day 21, erythrocytes were hemolytically removed using red lysis buffer (Sigma), and a portion of those cells were used as responder cells for IFN-γ ELISPOT assay. The remaining cells were placed into a 24-well plate (Corning) at 6×10^6 cells/well with feeder cells at a ratio of 3:1, and stimulated again. Their cytotoxicity was measured five days later. Erythrocyte-free splenocytes, which were derived from syngeneic mice, were cultured for three days in the presence of 25 μg/mL of lipopolysaccharide (LPS) to use as feeder cells.
In this Example, the IFN-γ ELISPOT method was used to evaluate CTL inducibility according to SPOTs produced by IFN-γ producing cells. Flat-bottomed 96-well multiscreen plate MAHA S45 (Millipore) was treated at 4° C. overnight with anti-mouse IFN-γ monoclonal antibody (Pharmingen). On the following day, the plate washed with PBS containing 0.05% Tween 20, and then reacted with a blocking buffer at room temperature for two hours. Thereafter, peptide-pulsed T2 cells and unpulsed T2 cells were added to each well at 10^5 cells/100 μL. […] The blue spots resulting from IFN-γ production were measured using KS ELISPOT compact release (Carl Zeiss).
Specific blue spots were determined as: Specific blue spot=(TISI(+)SPOT−TISI(−)SPOT) Those satisfying the following condition were considered effective: TISI(+)SPOT/TISI(−)SPOT≧2

Turning to “DVLYGPDTPI [SEQ ID NO:53, reference compound]”, the “ELISPOT ANALYSIS ×40 (SFC) MOUSE1 pep(+)” value (mouse 1, peptide-pulsed T2 cells) amounted to 229 SFC. Where the note is “mouse 1, unpulsed T2 cells”, the “ELISPOT ANALYSIS ×40 (SFC) MOUSE1 pep(−)” value is reported as 2 SFC. Moreover, the “ELISPOT ANALYSIS ×40 (SFC) MOUSE2 pep(+)” value (mouse 2, peptide-pulsed T2 cells) turned out to be 230 SFC. The “ELISPOT ANALYSIS ×40 (SFC) MOUSE2 pep(−)” value (mouse 2, unpulsed T2 cells) is on record as 6 SFC.
